Experiment: Dissolution profile in fasted-state simulated gastric fluid (release of BBPA)
Type: physicochemical
Details: FaSSGF pH 1.60, 37° C., 72 h

Question: For “benzene 1,4-bis(bisphosphonic acid) [BBPA]”, which “% Released (BBPA)” value is on record?
Answer: Its value is 99%.
